# Data taken from US11603349B2, “Anti-fibrotic compounds” (Certa Therapeutics Pty Ltd, priority 2017, dated 2023).
# Only a part of the results on these compounds is given; other tests are left out.
# Tests used:
# [1] = test system: TGF-β induced [14C]-proline incorporation in rat mesangial cells; test: [14C]-proline incorporation assay (collagen biosynthesis); assay type: cell-based; conditions: inhibition of TGF-β1 (1 ng/ml) induced [14C]-proline incorporation, IRMC cells, 44 hours
# [2] = test system: rat mesangial cells (1097/IRMC cells); test: MTS tetrazolium reduction cell viability assay; conditions: TGF-β1 stimulated IRMC cells, vs 1% DMSO vehicle
smiles,measurement,setting,value
C#CCOc1ccc(/C=C/C(=O)N[C@H]2CCCC[C@@H]2N)cc1OC,IC50,[1],36 µM
same,CC50,[2],96.4 µM
